Data as given in publication PMC5099547 (British Journal of Clinical Pharmacology, 2016).
Read-outs that look alike come from different tables or passages of the source.

Chains of the proteins cited; added tags and fusions are not shown. Residues count along the entry.
UniProt P00742, 41-179 partner limits assumed: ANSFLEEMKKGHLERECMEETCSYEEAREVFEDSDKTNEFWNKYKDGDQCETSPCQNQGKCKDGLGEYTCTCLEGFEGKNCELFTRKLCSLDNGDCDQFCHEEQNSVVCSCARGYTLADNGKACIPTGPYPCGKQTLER
UniProt P00742, 235-488 limits assumed: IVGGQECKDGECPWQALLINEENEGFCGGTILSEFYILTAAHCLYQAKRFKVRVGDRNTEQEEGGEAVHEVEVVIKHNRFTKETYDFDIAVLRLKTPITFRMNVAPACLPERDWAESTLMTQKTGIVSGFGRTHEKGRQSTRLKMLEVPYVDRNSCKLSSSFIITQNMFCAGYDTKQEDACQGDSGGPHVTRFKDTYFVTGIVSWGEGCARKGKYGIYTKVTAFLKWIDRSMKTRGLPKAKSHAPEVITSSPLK

Columns and labels:
intrinsic FXa activity = intrinsic FXa activity (Homo sapiens, UniProt P00742)
[1] = molecular target: intrinsic factor X activity (Homo sapiens, UniProt P00742)

## CN1CCc2nc(C(=O)N[C@@H]3C[C@@H](C(=O)N(C)C)CC[C@@H]3NC(=O)C(=O)Nc3ccc(Cl)cn3)sc2C1 [Edoxaban]
Intrinsic FXa activity; cyclosporine study, edoxaban 60 mg alone
  percent mean maximum change in intrinsic FXa values from baseline: −64.3%
Intrinsic FXa activity; edoxaban 60 mg + cyclosporine 500 mg
  percent mean maximum change in intrinsic FXa values from baseline: −81.8%
Intrinsic FXa activity; edoxaban + cyclosporine vs edoxaban alone
  increase in inhibitory activity (intrinsic FXa): approximately 1.3 fold
[1]; edoxaban 60 mg + ketoconazole
  mean value of intrinsic FX inhibition: 109.4%
[1]; ketoconazole study, edoxaban 60 mg alone
  mean value of intrinsic FX inhibition: 101.3%
